For orientation: IC50 means the concentration that gives 50% inhibition.

Sequences of proteins named here, by UniProt entry; tags and fusion partners are left off. Residues count along the entry.
UniProt P23219, 24-599: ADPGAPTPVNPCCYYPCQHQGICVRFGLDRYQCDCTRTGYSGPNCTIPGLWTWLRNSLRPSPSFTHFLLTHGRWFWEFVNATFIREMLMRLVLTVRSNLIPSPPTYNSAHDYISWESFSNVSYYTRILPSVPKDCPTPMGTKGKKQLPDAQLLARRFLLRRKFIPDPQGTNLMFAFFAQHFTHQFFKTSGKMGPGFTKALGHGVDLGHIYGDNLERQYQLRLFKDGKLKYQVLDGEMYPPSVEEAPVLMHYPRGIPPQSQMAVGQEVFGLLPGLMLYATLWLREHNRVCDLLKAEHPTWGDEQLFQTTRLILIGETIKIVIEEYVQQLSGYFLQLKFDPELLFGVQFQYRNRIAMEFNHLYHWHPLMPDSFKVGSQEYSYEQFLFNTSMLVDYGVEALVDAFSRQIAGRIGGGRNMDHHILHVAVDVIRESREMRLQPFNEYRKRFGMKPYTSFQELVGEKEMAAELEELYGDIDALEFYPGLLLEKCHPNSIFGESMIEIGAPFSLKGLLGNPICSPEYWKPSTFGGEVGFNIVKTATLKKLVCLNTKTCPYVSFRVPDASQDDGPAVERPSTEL

For this test, the target named is hCOX-1 (Homo sapiens, UniProt P23219). The test is described as follows: biochemical.

The compound `COc1ccc(-c2noc(CC(=O)O)c2-c2ccc(OC)cc2)cc1` [mofezolac] gave an IC50 of 23 µM.
